In one assay the target is Wee1 protein (Homo sapiens, UniProt P30291). Description: Binding of compound to Wee1 protein and Tracer 178 by TR-FRET (Wee1 kinase inhibitory activity). The following applies: read-out: IC50 (inhibitory activity against Wee1 kinase), 15 nM WEE1, 50 nM Tracer 178. Background: Time-resolved FRET reads energy transfer from a long-lived donor to a nearby acceptor.
The test system of a further assay is H1299 cells. Kind of assay: Anti-proliferative effect on H1299 cells by Cell Titer-Glo. Particulars: read-out: H1299 (IC50, inhibition of proliferation in vitro), 3 days. A general note: Cellular ATP, detected with luciferase, serves as a proxy for viable cell number.
The next assay relates to MIA PaCa2 cells. Description: Anti-proliferative effect on MIA PaCa2 cells by Cell Titer-Glo. Particulars: read-out: MIA PaCa 2 (IC50, inhibition of proliferation in vitro), 3 days.

By UniProt entry, the sequences of proteins in these tests, tags left out.
UniProt P30291, whole entry: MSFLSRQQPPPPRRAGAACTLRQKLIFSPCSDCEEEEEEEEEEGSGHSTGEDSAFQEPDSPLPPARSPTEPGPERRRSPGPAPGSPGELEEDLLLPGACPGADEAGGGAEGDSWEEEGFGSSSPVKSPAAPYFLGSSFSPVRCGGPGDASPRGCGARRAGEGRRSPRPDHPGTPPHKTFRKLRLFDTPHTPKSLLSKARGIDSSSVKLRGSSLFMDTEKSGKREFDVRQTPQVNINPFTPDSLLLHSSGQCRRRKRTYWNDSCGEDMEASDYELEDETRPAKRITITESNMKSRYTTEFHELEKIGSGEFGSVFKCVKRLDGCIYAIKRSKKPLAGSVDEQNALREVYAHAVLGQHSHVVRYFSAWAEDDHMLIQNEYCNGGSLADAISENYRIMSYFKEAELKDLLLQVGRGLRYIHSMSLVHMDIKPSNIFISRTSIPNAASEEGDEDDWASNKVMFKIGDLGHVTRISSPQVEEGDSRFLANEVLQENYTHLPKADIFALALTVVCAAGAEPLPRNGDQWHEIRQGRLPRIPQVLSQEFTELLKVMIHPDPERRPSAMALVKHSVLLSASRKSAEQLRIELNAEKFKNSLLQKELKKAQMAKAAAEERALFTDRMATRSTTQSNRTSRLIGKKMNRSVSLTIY

pIC50: −log10 of the molar value.

In the case of `C=CCn1c(=O)c2cnc(Nc3ccc(N4CC5CC(C4)N5C)cc3)nc2n1-c1ccc2c(n1)c(CC(=O)OC)cn2C`, the pIC50 on Wee1 protein was 7.00 to 8.00; in the assay with H1299 cells it was below 5.00; in the assay on MIA PaCa2 cells it was below 5.00.

On to `C=CCn1c(=O)c2cnc(Nc3ccc(N4CC5CC(C4)N5C)cc3)nc2n1-c1ccc2c(n1)c(CC(=O)O)cn2C`, for which the pIC50 at Wee1 protein is 7.00 to 8.00; in the assay with H1299 cells, 5.00 to 5.30; with MIA PaCa2 cells, 5.00 to 5.30.

These data come from patent US20250034151A1, “WEE1 INHIBITOR, PREPARATION THEREFOR, AND USE THEREOF” (JIANGSU TASLY DIYI PHARMACEUTICAL CO., LTD., priority 2022, published 2025).
